Only a part is listed here, and it is no random draw. Calls of active or inactive are those of the source.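 The calls were made as follows: active = inhibition of 40% or more at the single tested concentration; inactive = the rest.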
Test: wild-type TIM10 yeast growth inhibition – luminescence, uHTS, counter-screen for tim10-1 yeast inhibitor project, primary screen (AID 463195);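 also: wild-type TIM10 isogenic control strain grown at permissive 25 °C; 0% = DMSO yeast wells and 100% = minimal medium wells without yeast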
Conditions: S. cerevisiae TIM10 strain growth, BacTiter-Glo luminescence, 24 h; at 10 µM; hits give high values

Compound	inhibition
CCC(=O)N(c1ccccc1)C1(COC)CCN(CCc2cccs2)CC1	inactive: 2.38%
CCC(=O)N(c1ccccc1)C1(COC)CCN(CCn2nnn(CC)c2=O)CC1	inactive: 1.91%

Source: PubChem BioAssay AID463195 (Sanford-Burnham Center for Chemical Genomics, 2010)
